# Key:
# [1] = test system: spontaneous ACTH release; test: Spontaneous ACTH release by adrenalectomized rats; format: in vivo, rat; settings: iv 3 mg/kg BW (2.7 nmole)
# Method: (§1) The synthetic CRF antagonists from Examples I and II were examined for their effects on the secretion of ACTH and β-endorphin in vitro and the synthetic AHC peptide is also examined in vivo. The effectiveness of synthetic CRF antagonists to block the secretion of ACTH and β-endorphin by cultured rat pituitary cells is measured using the procedure as generally set forth in Vale et al., Endocrinology, 91, 562 (1972). In vivo testing is carried out using the general procedure set forth in C. Rivier et al., Science, 218, 377 (1982).
# (§2) The in vivo effect of CRF antagonists is tested on the spontaneous ACTH release by adrenalectomized rats.
# [2] = test system: CRF-induced ACTH secretion; test: CRF-induced ACTH secretion in intact, non-anesthetized rats; format: in vivo, rat
# Method: as §1, §2
smiles,measurement,setting,value
CSCC[C@H](NC(=O)[C@H](CCC(=O)O)NC(=O)[C@H](CC(C)C)NC(=O)[C@H](CCSC)NC(=O)[C@H](CCC(=O)O)NC(=O)[C@H](CCCNC(=N)N)NC(=O)[C@H](CC(C)C)NC(=O)[C@H](CC(C)C)NC(=O)[C@H](Cc1c[nH]cn1)NC(=O)[C@H](Cc1ccccc1)NC(=O)[C@@H](NC(=O)[C@H](CC(C)C)NC(=O)[C@@H](N)CC(=O)O)[C@@H](C)O)C(=O)N[C@@H](C)C(=O)N[C@@H](CCCCN)C(=O)N[C@@H](C)C(=O)N[C@@H](CCC(=O)O)C(=O)N[C@@H](CCC(N)=O)C(=O)N[C@@H](CCC(=O)O)C(=O)N[C@@H](C)C(=O)N[C@@H](CCC(=O)O)C(=O)N[C@@H](CCC(N)=O)C(=O)N[C@@H](C)C(=O)N[C@@H](C)C(=O)N[C@@H](CC(C)C)C(=O)N[C@@H](CC(N)=O)C(=O)N[C@@H](CCCNC(=N)N)C(=O)N[C@@H](CC(C)C)C(=O)N[C@@H](CC(C)C)C(=O)N[C@@H](CC(C)C)C(=O)N[C@@H](CCC(=O)O)C(=O)N[C@@H](CCC(=O)O)C(=O)N[C@@H](C)C(N)=O [AHC (9-41)],time for which the decrease in plasma ACTH is statistically significant,[1],2 h
same,dose level at which inhibition of CRF-induced ACTH secretion is significant,[2],0.09 µmol
